One substance from patent publication EP1077966B1, “BIPHENYL SULFONYL ARYL CARBOXYLIC ACIDS USEFUL IN THE TREATMENT OF INSULIN RESISTANCE AND HYPERGLYCEMIA” (Wyeth, priority 1998, dated 1999) can be followed below.

Protein sequences, listed by entry. Tags and fused reporters are not part of them. Lines headed by an entry give the natural chain unless they say otherwise; changes in a name come on top.
UniProt P18031: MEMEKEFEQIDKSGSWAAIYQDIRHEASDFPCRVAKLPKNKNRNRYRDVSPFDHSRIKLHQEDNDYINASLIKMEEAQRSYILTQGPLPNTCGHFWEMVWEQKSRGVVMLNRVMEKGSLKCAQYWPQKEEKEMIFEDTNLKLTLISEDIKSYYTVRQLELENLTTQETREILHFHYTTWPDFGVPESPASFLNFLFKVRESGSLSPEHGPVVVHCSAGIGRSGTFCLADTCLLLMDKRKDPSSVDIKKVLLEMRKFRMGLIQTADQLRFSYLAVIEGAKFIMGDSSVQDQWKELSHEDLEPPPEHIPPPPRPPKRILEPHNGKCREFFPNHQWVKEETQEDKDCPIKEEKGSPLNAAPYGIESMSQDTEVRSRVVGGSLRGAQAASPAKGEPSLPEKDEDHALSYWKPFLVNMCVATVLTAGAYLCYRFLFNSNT

The target in the test is Human recombinant PTP1B (Homo sapiens, UniProt P18031). The experiment in a line: Inhibition of tri-phosphorylated insulin receptor dodecaphosphopeptide dephosphorylation by hPTP1B (malachite green-ammonium molybdate phosphate detection). The format is biochemical. Particulars: substrate phosphotyrosyl dodecapeptide TRDIYETDYYRK (insulin receptor 1142-1153), 37°C, 30 min, pH 7.4.

In the case of Ammonium molybdate tetrahydrate, the IC50 stood at 8.7 µM.
